Measured values: patent publication US5084454A, “2-(piperidinylmethyl)-4-phenyl-2,3-dihydro-4H-1,4-benzoxazines useful as antipsychotics” (Farmitalia Carlo Erba S.r.l., priority 1988, dated 1992)

System: cataleptic activity in the mouse
Assay: catalepsy, "bar test" in the mouse
Settings: oral, ratio

`O=C1NCN(c2ccccc2)C12CCN(CC1CN(c3ccc(F)cc3)c3ccccc3O1)CC2` (stereo not shown) [FCE 25676, 2-(1-phenyl-1,3,8-triazaspiro[4,5]decan-4-one-8-yl)-methyl-4-(4-fluorophenyl)-2,3-dihydro-4H-1,4-benzoxazine] showed a (ED50 Catalepsy / ED50 Climbing) of 15.3.
